Results from BindingDB's records for PubMed 10991998 (Wake Forest University, 2000).
Several values for one entry are separate records, joined by “and”; a condition that tells them apart may be missing. Identical values can stand only once.

Sequences of proteins named here, by UniProt entry; tags and fusion partners are left off.
UniProt P20272, whole entry: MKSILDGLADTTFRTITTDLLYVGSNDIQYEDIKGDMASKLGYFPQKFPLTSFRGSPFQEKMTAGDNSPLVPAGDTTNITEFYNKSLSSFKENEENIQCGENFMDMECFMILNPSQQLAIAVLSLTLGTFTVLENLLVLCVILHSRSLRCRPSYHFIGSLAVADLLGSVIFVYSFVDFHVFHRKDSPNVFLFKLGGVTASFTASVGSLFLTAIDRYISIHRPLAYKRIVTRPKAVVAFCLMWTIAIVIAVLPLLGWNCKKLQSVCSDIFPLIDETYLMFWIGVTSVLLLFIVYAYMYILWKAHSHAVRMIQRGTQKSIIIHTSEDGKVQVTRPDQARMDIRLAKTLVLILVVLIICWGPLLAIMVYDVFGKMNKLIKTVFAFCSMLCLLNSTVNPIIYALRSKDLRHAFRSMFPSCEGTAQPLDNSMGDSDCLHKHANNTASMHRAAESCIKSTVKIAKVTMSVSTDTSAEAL

Target: Cannabinoid receptor 1 (Rattus norvegicus, UniProt P20272)

CCCCC/C=C\C/C=C\C/C=C\C/C=C\CCCC(=O)NC(C)CO (stereo unspecified)
Ki: 155 nM and 630 nM and 1100 nM and 1000 nM and 330 nM and 150 nM and 240 nM
